The text below walks through data of US11066414B2, “Cot modulators and methods of use thereof” (Gilead Sciences, Inc., priority 2015, dated 2021).

The chains behind the UniProt entries cited, without tags or fusion partners. Residues count along the entry.
UniProt P41279, 30-397: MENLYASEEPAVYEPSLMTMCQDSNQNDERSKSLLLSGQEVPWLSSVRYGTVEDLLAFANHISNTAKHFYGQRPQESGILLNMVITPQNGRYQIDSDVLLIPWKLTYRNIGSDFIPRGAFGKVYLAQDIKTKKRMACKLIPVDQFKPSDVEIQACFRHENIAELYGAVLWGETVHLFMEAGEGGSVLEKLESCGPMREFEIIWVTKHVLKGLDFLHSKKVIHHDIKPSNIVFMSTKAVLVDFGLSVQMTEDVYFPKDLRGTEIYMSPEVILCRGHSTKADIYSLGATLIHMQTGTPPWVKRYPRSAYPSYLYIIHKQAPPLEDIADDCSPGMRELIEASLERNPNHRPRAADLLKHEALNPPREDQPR

Read-outs that look alike come from different tables or passages of the source.

The term EC50 denotes the concentration that produces a half-maximal response. As a reminder, the IC50 is the concentration at which inhibition is half-maximal.

For one assay, the system named is TNFα. Briefly: Cot Monocyte TNFα Cell Based Assay.
In a further assay the target is Human Cot (Homo sapiens (Human), UniProt P41279). Nature of the assay: High Throughput Cot Biochemical Assay.
[1] abbreviates: read-out: EC50 TNF, LPS-stimulated human monocytes, TNFα TR-FRET.
[2] abbreviates: Homo sapiens, Monocyte, read-out: EC50 TNF, LPS-stimulated human monocytes, TNFα.
Where [3] appears, read: IC50 HTRF, Cot HTRF (TR-FRET) biochemical assay.
Where [4] appears, read: Homo sapiens, Monocyte, read-out: EC50 TNF, LPS-stimulated human monocytes, TNFα TR-FRET.

Turning to `COc1nccc2c([C@H](Nc3cc(Cl)c4ncc(C#N)c(NCC(C)(C)C(F)(F)F)c4c3)c3cn(C4(C5CC5)CC4)nn3)cccc12` [Example 926, (S)-6-(((4-(1-(1,1-bi(cyclopropan)]-1-yl)-1H-1,2,3-triazol-4-yl)(1-methoxylsoquinolin-5-yl)methyl)amino)-8-chloro-4-((3,3,3-trifluoro-2,2-dimethylpropyl)amino)quinoline-3-carbonitrile], the EC50 in the assay on TNFα (setting [1]) worked out at 174 nM. For the same molecule, the IC50 at Human Cot (read-out: IC50 HTRF, Cot HTRF (TR-FRET KinEASE) biochemical assay, 400 μM ATP) is 13 nM.

With `N#Cc1cnc2c(Cl)cc(N[C@@H](c3cscn3)c3cn(CCN4CCOCC4)nn3)cc2c1Nc1ccc(F)c(Cl)c1` [Example 352, (S)-8-chloro-4-((3-chloro-4-fluorophenyl)amino)-6-(((1-(2-morpholinoethyl)-1H-1,2,3-triazol-4-yl)(thiazol-4-yl)methyl)amino)-quinoline-3-carbonitrile], the EC50 in the assay with TNFα (setting [2]) was 565 nM. On Human Cot (setting [3]), this molecule gave an IC50 of 12 nM.

In the case of `Cc1n[nH]c2cccc([C@H](Nc3cc(Cl)c4ncc(C#N)c(NCC(C)(C)C)c4c3)c3cn(C4(C(F)(F)F)CC4)nn3)c12` [Example 524, (S)-8-chloro-6-(((3-methyl-1H-indazol-4-yl)(1-(1-(trifluoromethyl)cyclopropyl)-1H-1,2,3-triazol-4-yl)methyl)amino)-4-(neopentylamino)quinoline-3-carbonitrile], the EC50 in the assay on TNFα (setting [2]) was determined as 77 nM. Further, on Human Cot (setting [3]), the IC50 worked out at 12 nM.

As to `Cc1nc(F)ccc1[C@H](Nc1cc(Cl)c2ncc(C#N)c(NCC(C)(C)C(F)(F)F)c2c1)c1nnn(C2CC2)c1F` [Example 958, (S)-8-chloro-6-(((1-cyclopropyl-5-fluoro-1H-1,2,3-triazol-4-yl)(6-fluoro-2-methylpyridin-3-yl)methyl)amino)-4-((3,3,3-trifluoro-2,2-dimethylpropyl)amino)quinoline-3-carbonitrile], the EC50 in the assay with TNFα (setting [4]) stood at 56 nM.

With `CC(C)(C)CNc1c(C#N)cnc2c(Cl)cc(N[C@H](c3cn(C4(C(F)F)CC4)nn3)c3cccc4c3CNC4)cc12` [Example 445, (S)-8-chloro-6-(((1-(1-(difluoromethyl)-cyclopropyl)-1H-1,2,3-triazol-4-yl)(isoindolin-4-yl)methyl)amino)-4-(neopentylamino)quinoline-3-carbonitrile], in the assay with TNFα (setting [2]), the EC50 came out at 71 nM.

For `COc1c([C@@H](Nc2cc(C#N)c3ncc(C#N)c(NCC(C)(C)C)c3c2)c2ccc(F)nc2C)nnn1C1CC1` [Example 859, (S)-6-(((1-cyclopropyl-5-methoxy-1H-1,2,3-triazol-4-yl)(6-fluoro-2-methylpyridin-3-yl)methyl)amino)-4-(neopentylamino)quinoline-3,8-dicarbonitrile], the concentration for a half-maximal effect (EC50) in the assay with TNFα (setting [4]) turned out to be 53 nM.

Take `Cc1nc(F)ccc1[C@H](Nc1cc(C#N)c2ncc(C#N)c(NCC(C)(C)C)c2c1)c1nnn(C2(C3CC3)CC2)c1F` [Example 865]: the EC50 in the assay on TNFα (setting [1]) came out at 23 nM.

Take `CC(C)(C)CNc1c(C#N)cnc2c(C#N)cc(N[C@H](c3cn(C4(C(F)(F)F)CC4)nn3)c3cccc4ccncc34)cc12` [Example 535, (S)-6-((isoquinolin-8-yl(1-(1-(trifluoro-methyl)cyclopropyl)-1H-1,2,3-triazol-4-yl)methyl)amino)-4-(neopentylamino)-quinoline-3,8-dicarbonitrile]: the EC50 in the assay with TNFα (setting [2]) was 47 nM.

Regarding `Cn1ccc2c([C@H](Nc3cc(C#N)c4ncc(C#N)c(NCC(C)(C)C)c4c3)c3cn(C4(C(F)F)CC4)nn3)ccnc21` [Example 873, (S)-6-(((1-(1-(difluoromethyl)cyclopropyl)-1H-1,2,3-triazol-4-yl)(1-methyl-1H-pyrrolo[2,3-b]pyridin-4-yl)methyl)amino)-4-(neopentylamino)quinoline-3,8-dicarbonitrile], in the assay on TNFα (setting [4]), the EC50 is 97 nM.

Take `CC(C)(C)CNc1c(C#N)cnc2c(Cl)cc(N[C@H](c3cn(C4(C(F)(F)F)CC4)nn3)c3cccc4ncc(F)cc34)cc12` [Example 937, (S)-8-chloro-6-(((3-fluoroquinolin-5-yl)(1-(1-(trifluoromethyl)cyclopropyl)-1H-1,2,3-triazol-4-yl)methyl)amino)-4-(neopentylamino)quinoline-3-carbonitrile]: the concentration for a half-maximal effect (EC50) with TNFα (setting [4]) was determined as 277 nM. This molecule yielded an IC50 against Human Cot (IC50 HTRF, Cot HTRF (TR-FRET KinEASE) biochemical assay, 400 μM ATP) of 23 nM.

With `CC(C)(C)CNc1c(C#N)cnc2c(Cl)cc(N[C@H](c3cn(C4(C(F)(F)F)CC4)nn3)c3ccc(F)c4ncccc34)cc12` [Example 617, (S)-8-chloro-6-(((8-fluoroquinolin-5-yl)(1-(1-(trifluoromethyl)cyclopropyl)-1H-1,2,3-triazol-4-yl)methyl)amino)-4-(neopentylamino)quinoline-3-carbonitrile], the EC50 with TNFα (setting [2]) came out at 77 nM.
